Antibody variant affinities, Ab-95 light chain, assay 2

All variants were tested on one target, the spike HR2 peptide PDVDLGDISGINAS (SARS-CoV-2).

The variants keep the heavy chain, the linker and the frameworks of Ab-95 (scFv order VH, a (GGGGS)3 linker, VL).
VH: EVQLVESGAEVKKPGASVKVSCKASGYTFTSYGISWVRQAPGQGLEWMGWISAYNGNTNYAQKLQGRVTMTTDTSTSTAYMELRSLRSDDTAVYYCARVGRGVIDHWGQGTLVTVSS
VL: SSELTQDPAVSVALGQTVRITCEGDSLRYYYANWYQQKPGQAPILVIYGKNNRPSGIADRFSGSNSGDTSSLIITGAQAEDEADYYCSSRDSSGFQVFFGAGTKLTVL

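The starting antibody came from a phage panning campaign against this peptide. In library AAYL52, one, two or three CDR residues were substituted; doubles and triples were drawn at random. AlphaSeq pools MATa yeast showing the antibodies with MATalpha yeast showing the peptide. Mating (16 h, 30 °C) was followed by selection of diploids and sequencing of their barcodes. Each replicate has its own calibration line, from reference interactions of the BCL2 family. Each pool was mated in three replicate cultures.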

The parent's light chain CDRs are EGDSLRYYYAN, GKNNRPS, SSRDSSGFQVF; each variant's own CDRs replace them letter for letter. Numbers give log10(Kd / nM), so 0 is 1 nM and 3 is 1 µM. Smaller is tighter. The mean shown is taken over the replicates in which the pair was detected. An entry "nd" has no value in the source: the pair was not observed among the diploids in that replicate. This suggests poor binding but is not conclusive. Three control strains display no target. For library AAYL52, 28% of the pairings with them gave a signal, with a median of 3.91 and one signal in twenty below 2.90, so weak values seen in few replicates may be background. Also given: how often the same scFv was detected with the empty control strains, with their mean in brackets.

CDR-L1 | CDR-L2 | CDR-L3 | replicates, log10 nM | log10 Kd (nM), mean | signal with controls
EGDSLVHYYAN | GKNNSPS | SSRDSSGFQVF | 3.06 2.87 3.07 | 3.00 | 5/9 (3.88)
EGDELRYYYAN | GKGNRPS | SSRDSSGFQVV | 5.03 3.61 4.13 | 4.25 | 1/9 (4.34)
EGDQLRYYYAN | EKNNRPS | SSRDSSGFQVI | 3.84 nd nd | 3.84 | 3/9 (3.36)
EGDSLRMYTAN | GKNNRPS | SSRDISGFQVF | 2.82 2.26 1.95 | 2.34 | 4/9 (3.80)
EGDSLRGYYAN | WKNNRPS | MSRDSSGFQVF | 3.53 4.18 4.48 | 4.07 | 1/9 (4.51)
EGDSLRYKYAN | GKNLRPS | SSRDRSGFQVF | 1.61 1.55 1.35 | 1.51 | 3/9 (4.79)
EGDKLRKYYAH | GKNNRPS | SSRDSSGFQVF | nd nd nd | nd | 4/9 (4.13)
EGDSLRYYYAR | GKNNRPS | SSYDSSGFQNF | nd nd nd | nd | 1/9 (3.43)
EGDSLRYYYAN | GKNNRIS | SSRDSSGFQVF | 2.48 2.57 2.13 | 2.40 | 2/9 (4.57)
EGDSLRYYYAP | GKNNRPS | SSIDSSGFQDF | 5.30 5.84 nd | 5.57 | 2/9 (3.66)
EGDSLRYYYAN | GHNNRPS | WVRDSSGFQVF | 2.92 2.15 nd | 2.54 | 4/9 (4.08)
EGDGLRYYYAN | GKNNRPS | SSRDSSGFQCR | 2.10 2.01 1.16 | 1.76 | 0/9
EGDSLRYWYAN | GKNNRPS | RSRFSSGFQVF | nd 3.71 4.46 | 4.09 | 4/9 (3.87)
EGDSLRYYYAN | GKNNRQS | SQRWSSGFQVF | nd 3.93 nd | 3.93 | 3/9 (3.88)
EGDSLNYYYAN | IKNNEPS | SSRDSSGFQVF | 2.33 3.25 2.65 | 2.74 | 3/9 (3.32)
EGDSLRSYYAN | GKWNRPS | SSRDSSGFAVF | 3.61 3.48 3.16 | 3.42 | 4/9 (4.82)
EGDSTRYYYAN | GKNNRPS | SSRDSSGFQDF | 3.40 3.56 nd | 3.48 | 3/9 (3.97)
EGDSLRKYYAN | GKNNRPS | SSAQSSGFQVF | 3.13 3.26 3.86 | 3.42 | 3/9 (3.03)
EGDSLRYYYAI | GKNNRPS | SSCDSSGFQVF | 3.82 nd nd | 3.82 | 0/9
VGDNLRYYYAN | GKNNRPS | SDRDSSGFQVF | 3.50 3.40 2.20 | 3.03 | 1/9 (4.76)
EGDSLRYYYAR | FKNNRPS | SKRDSSGFQVF | 5.13 nd nd | 5.13 | 2/9 (3.06)
EGESLRYYYWN | GKNNRPS | SSRCSSGFQVF | nd 3.76 4.16 | 3.96 | 0/9
EGMSLRYYYAF | GKNNRPS | SSRDSSLFQVF | 3.40 4.45 nd | 3.93 | 2/9 (3.77)
EGDSIRYYYAN | FKNNRPM | SSRDSSGFQVF | 4.12 5.35 nd | 4.74 | 2/9 (4.55)
EGDSRQYYYAN | GKANRPS | SSRDSSGFQVF | nd nd nd | nd | 0/9
IGDSLRYYYAN | GKNLRPS | GSRDSSGFQVF | 2.69 2.28 2.63 | 2.54 | 7/9 (4.14)
EWDSLRYYYAN | GKNNRPS | SSRNSSGFQVQ | 4.57 3.77 nd | 4.17 | 3/9 (4.33)
EGDSDRYYYAN | GKLNRPS | SSSDSSGFQVF | 3.70 nd nd | 3.70 | 3/9 (4.30)
EGDSLRYYYMQ | GTNNRPS | SSRDSSGFQVF | 3.40 3.48 nd | 3.44 | 3/9 (3.38)
WGYSLRYYYAN | GKNNRPS | SSRDSSGFDVF | nd 4.19 nd | 4.19 | 3/9 (4.90)
EGDSLRYYYAN | GWGNRPS | SSRDSSGHQVF | nd nd 2.76 | 2.76 | 2/9 (3.36)
EGDSLRYSYAN | GKNNRPS | SSRDSSGSQTF | 2.37 3.34 nd | 2.86 | 0/9
EGDSLRYYYAN | GENNRPS | SQRDSSGFQVF | nd 4.42 2.62 | 3.52 | 2/9 (2.71)
EGDSLRCYYAN | GKNNRPS | HSRDSSGFQVS | 3.63 2.77 2.98 | 3.13 | 8/9 (3.70)
EGDSLRYYYAN | GKNNRPS | SSRESSGFRVF | 3.83 5.15 2.50 | 3.82 | 2/9 (4.38)
EGDSLWYYYAN | GKNNYPS | SSRDYSGFQVF | nd 4.45 nd | 4.45 | 1/9 (3.41)
AGDSMRYYYAN | GKNNRPS | SSWDSSGFQVF | 2.83 2.44 2.89 | 2.72 | 4/9 (3.92)
EGDSLIYYYAN | GKHNRMS | SSRDSSGFQVF | nd nd nd | nd | 2/9 (3.67)
EGDSLRYYYMN | GKNNRPT | SSRDSSGFQVF | 3.37 4.66 4.22 | 4.08 | 2/9 (4.04)
EGDSLRYYYAN | GKNNKPS | STVDSSGFQVF | 3.40 2.19 2.48 | 2.69 | 2/9 (4.38)
EGDSLRYYYAF | GKNNRPS | SSMDSSGFQVF | nd 5.56 4.22 | 4.89 | 1/9 (4.55)
DGDELRYYYAN | GKNNRPS | SSRDSSGFQGF | 2.06 1.97 1.87 | 1.97 | 5/9 (3.84)
EGDSLRGYYAN | GKNNRPS | SSRQSSGFWVF | 1.92 1.58 1.25 | 1.58 | 2/9 (3.73)
EGDSLRYYYAN | GKNNRPS | SERDSSGLQMF | 5.48 3.09 nd | 4.28 | 4/9 (3.78)
EGDSLRRYYAN | GKNNRPW | SERDSSGFQVF | 1.38 1.45 1.20 | 1.34 | 2/9 (3.94)
EGDSLRYWYAN | GKNNTPS | SSRDSSGFVVF | nd nd nd | nd | 3/9 (3.19)
EGDSLRYYYAN | CKNPRPN | SSRDSSGFQVF | 2.87 4.10 3.31 | 3.43 | 5/9 (3.24)
HGDSLRYYYAN | RKNNRPS | SSRDCSGFQVF | 3.93 3.56 2.65 | 3.38 | 2/9 (3.17)
EGDSLRYTNAN | GKNNRPS | SSIDSSGFQVF | nd 5.56 nd | 5.56 | 3/9 (3.90)
EGDPLRYYYAN | GKNNRAS | SSRDSSGFQVF | 2.89 2.37 2.32 | 2.53 | 2/9 (3.85)

For reference, 7 entries of the list once more:

CDR-L1 | CDR-L2 | CDR-L3 | replicates, log10 nM | log10 Kd (nM), mean | signal with controls
EGDSLRYYYAN | GKNNRQS | SQRWSSGFQVF | nd 3.93 nd | 3.93 | 3/9 (3.88)
EGDELRYYYAN | GKGNRPS | SSRDSSGFQVV | 5.03 3.61 4.13 | 4.25 | 1/9 (4.34)
EGDSLRKYYAN | GKNNRPS | SSAQSSGFQVF | 3.13 3.26 3.86 | 3.42 | 3/9 (3.03)
EGDSLRYYYAN | GENNRPS | SQRDSSGFQVF | nd 4.42 2.62 | 3.52 | 2/9 (2.71)
EGDSLVHYYAN | GKNNSPS | SSRDSSGFQVF | 3.06 2.87 3.07 | 3.00 | 5/9 (3.88)
EGDSLRYKYAN | GKNLRPS | SSRDRSGFQVF | 1.61 1.55 1.35 | 1.51 | 3/9 (4.79)
EGDSLRYYYAR | FKNNRPS | SKRDSSGFQVF | 5.13 nd nd | 5.13 | 2/9 (3.06)

From the AlphaSeq antibody data of Engelhart et al. 2022 (doi:10.1038/s41597-022-01779-4), copy in the FLAb collection.